These results are taken from patent US20080044484A1, “Use of polymeric nanoparticles for vaccine delivery” (THE REGENTS OF THE UNIVERSITY OF CALIFORNIA, priority 2004, published 2008).

The test system of experiment [1] is T2 cells. The experiment in a line: IFNγ release by CTL (ELISA) after incubation with peptide-loaded T2 cells. In kind it is cell-based, human. The settings on record: CTL elicited with the corresponding HER2/neu peptide, 20 h, 10^5 CTL/well. The method, then: In interferon gamma-release assays, 10^5 HER2/neu-specific CTL were co-incubated with 10^5 peptide-loaded T2 cells for 20 hours at 37° C. The concentrations of human interferon gamma in co-cultured supernatants were then determined by ELISA. The results of the ELISA experiments are shown in table 37 A-D. These findings are in parallel with the ^51Cr-release experiments, and confirm that the most efficient constructs in facilitating the HER2/neu peptide presentation are the constructs of the type HER-IN-AF. As in the ^51Cr-release experiments, the constructs with the peptides HER369-377 and HER654-662 were the most efficient, while the constructs with the peptide HER789-797 were the least efficient, especially on days 5 and 8 after peptide loading.
Background: An ELISA detects its analyte on a solid surface through an enzyme-linked reagent.

In experiment [2] the test system is breast cancer cells MDA-MB-231. Put plainly: IFNγ release by CTL (ELISA) after incubation with peptide-loaded MDA-MB-231 cells. In kind it is cell-based, human. The settings on record: CTL elicited with the corresponding HER2/neu peptide, 20 h, 10^5 CTL/well. The method, then:
In interferon gamma release assays, 10^5 HER2/neu-specific CTL were co-incubated with 10^5 peptide-loaded tumor cells for 20 hours at 37° C. The concentration of human interferon gamma in co-cultured supernatants was then determined by ELISA. The results of the ELISA experiments are shown in Table 39 A-D. These findings are in parallel with the ^51Cr-release experiments, and confirm that the most efficient constructs in facilitating the HER2/neu peptide presentation are the constructs of the type HER-IN-AF.

Experiment [3] concerns ICP47-transfected cells MCF7. The experiment in a line: Functional blockade of TAP by ICP47, 51Cr-release from peptide-loaded cells. It is filed as cell-based, human. The following applies: CTL reactive against the corresponding HER2/neu peptide, 3 days after peptide loading, 6-hour assay. An excerpt:
Another aspect in these studies was to determine the mechanisms of enhancement of the antigen presentation by the fusion peptides in human tumor cell lines. Therefore, a new test system was developed utilizing the Herpes Simplex virus (HSV) protein ICP47. ICP47 is a cytoplasmic protein, which interferes with antigen presentation by physically associating with TAP within the cell and inhibiting peptide transport across the ER-membrane. By transfecting the ICP47 gene into several cancer cell lines a novel system for screening different fusion peptides for TAP-independent translocation of peptide antigens through the ER-membrane was generated.
The breast cancer cell line MCF7 was transfected with ICP47, and observed permanent block of the function of TAP, and therefore lack of recognition of these cells by the CTL, which normally recognize and kill them. […] The expression of these antigens was detected by ^51Cr-release assays. […] This confirms that the signal sequence approach is very effective in improving antigen presentation, even in tumor cells with deficiency of antigen processing/presentation.

Experiment [4] concerns T2 cells. The experiment in a line: 51Cr-release assay using T2 cells pulsed with HER2/neu-derived peptides as targets for CTL. The settings on record: T2 pulsed with the peptide; percentage of specific lysis.

In the case of “KIFGSLAFL MTNKCLLQIALLLCFSTTALS (KIFGSLAFLMTNKCLLQIALLLCFSTTALS) [HER369-377-IS]”, the “Release of IFNγ by CTL, T2 cells loaded with the peptide” value (shortened to “Release of IFNγ by CTL, T2 cells loaded”) is 212 pg/mL in the experiment with T2 cells [1] (Day 1 after peptide loading), 112 pg/mL with T2 cells [1] (Day 3 after peptide loading), 117 pg/mL in the experiment with T2 cells [1] (Day 5 after peptide loading) and 103 pg/mL with T2 cells [1] (Day 8 after peptide loading). Besides, the “Release of IFNγ by CTL, MDA-MB-231 cells loaded with the peptide” value in experiment [2] (Day 1 after peptide loading) worked out at 224 pg/mL; in experiment [2] (Day 3 after peptide loading), 131 pg/mL; in experiment [2] (Day 5 after peptide loading) it was 128 pg/mL; in experiment [2] (Day 8 after peptide loading), 113 pg/mL.
For the substance “KIFGSLAFL MRYMILGLLALAAVCSA (KIFGSLAFLMRYMILGLLALAAVCSA) [HER369-377-ES]”, the “Release of IFNγ by CTL, T2 cells loaded” value in the experiment on T2 cells [1] (Day 1 after peptide loading) is 172 pg/mL; in the experiment on T2 cells [1] (Day 3 after peptide loading), 142 pg/mL; in the experiment on T2 cells [1] (Day 5 after peptide loading), 121 pg/mL; in the experiment on T2 cells [1] (Day 8 after peptide loading), 118 pg/mL. The “Release of IFNγ by CTL, MDA-MB-231 cells loaded with the peptide” value in experiment [2] (Day 1 after peptide loading) was found to be 182 pg/mL; in experiment [2] (Day 3 after peptide loading) it was 187 pg/mL; in experiment [2] (Day 5 after peptide loading), 137 pg/mL; in experiment [2] (Day 8 after peptide loading), 122 pg/mL.
For “MRYMILGLLALAAVCSA KIFGSLAFL (MRYMILGLLALAAVCSAKIFGSLAFL) [ES-HER369-377]”, the figures for the “Percent 51Cr Released From ICP47-transfected MCF7 cells loaded with the construct” value in experiment [3] (E:T 20:1) and in experiment [3] (E:T 40:1) were 2% and 1%, respectively. Further, the “Release of IFNγ by CTL, T2 cells loaded” value in the experiment on T2 cells [1] (Day 1 after peptide loading) worked out at 3368 pg/mL; in the experiment with T2 cells [1] (Day 3 after peptide loading) it was 2377 pg/mL; in the experiment with T2 cells [1] (Day 5 after peptide loading) it was 1073 pg/mL; with T2 cells [1] (Day 8 after peptide loading), 592 pg/mL. Besides, the “Release of IFNγ by CTL, MDA-MB-231 cells loaded with the peptide” value in experiment [2] (Day 1 after peptide loading) was found to be 3688 pg/mL; in experiment [2] (Day 3 after peptide loading) it was 2417 pg/mL; in experiment [2] (Day 5 after peptide loading), 1278 pg/mL; in experiment [2] (Day 8 after peptide loading) it was 577 pg/mL.
For “M R KIFGSLAFL A A V C S A (MRKIFGSLAFLAAVCSA) [HER369-377-IN-ES]”, the “Percent 51Cr Released From ICP47-transfected MCF7 cells loaded with the construct” value in experiment [3] (E:T 20:1) came to 3%; in experiment [3] (E:T 40:1), 4%. Also, the “Release of IFNγ by CTL, T2 cells loaded” value in the experiment with T2 cells [1] (Day 1 after peptide loading) was 2227 pg/mL; in the experiment with T2 cells [1] (Day 3 after peptide loading) it was 2029 pg/mL; with T2 cells [1] (Day 5 after peptide loading), 1663 pg/mL; in the experiment on T2 cells [1] (Day 8 after peptide loading) it was 690 pg/mL. Also, the “Release of IFNγ by CTL, MDA-MB-231 cells loaded with the peptide” value was determined as 2627 pg/mL in experiment [2] (Day 1 after peptide loading), 2187 pg/mL in experiment [2] (Day 3 after peptide loading), 1778 pg/mL in experiment [2] (Day 5 after peptide loading) and 687 pg/mL in experiment [2] (Day 8 after peptide loading).
Regarding “MTNKCLLQIALLLCFSTTALS KIFGSLAFL (MTNKCLLQIALLLCFSTTALSKIFGSLAFL) [IS-HER369-377]”, the “Percent 51Cr Released From ICP47-transfected MCF7 cells loaded with the construct” value in experiment [3] (E:T 20:1) worked out at 3%; in experiment [3] (E:T 40:1), 2%. In addition, the “Release of IFNγ by CTL, T2 cells loaded” value with T2 cells [1] (Day 1 after peptide loading) stood at 2120 pg/mL; in the experiment on T2 cells [1] (Day 3 after peptide loading) it was 1818 pg/mL; in the experiment on T2 cells [1] (Day 5 after peptide loading), 1323 pg/mL; in the experiment with T2 cells [1] (Day 8 after peptide loading), 545 pg/mL. In addition, the “Release of IFNγ by CTL, MDA-MB-231 cells loaded with the peptide” value in experiment [2] (Day 1 after peptide loading) came to 2126 pg/mL; in experiment [2] (Day 3 after peptide loading), 1777 pg/mL; in experiment [2] (Day 5 after peptide loading), 1444 pg/mL; in experiment [2] (Day 8 after peptide loading), 587 pg/mL.
In the case of “KIFGSLAFL [HER2/neu369-377, reference compound]”, the “51Cr-release, E:T ratio 1.5:1” value in the experiment on T2 cells [4] is reported as 12%. Further, the “51Cr-release, E:T ratio 3.1” value in the experiment on T2 cells [4] stood at 23%. For the same substance, in the experiment on T2 cells [4], the “51Cr-release, E:T ratio 6:1” value was determined as 42%. Further, the “51Cr-release, E:T ratio 12:1” value in the experiment on T2 cells [4] was 57%. Besides, the “51Cr-release, E:T ratio 25:1” value in the experiment with T2 cells [4] was determined as 66%. For the same substance, in the experiment with T2 cells [4], the “51Cr-release, E:T ratio 50:1” value is given as 94%. Besides, the “Release of IFNγ by CTL, T2 cells loaded” value in the experiment on T2 cells [1] (Day 1 after peptide loading) worked out at 3120 pg/mL; in the experiment on T2 cells [1] (Day 3 after peptide loading) it was 127 pg/mL; in the experiment on T2 cells [1] (Day 5 after peptide loading), 211 pg/mL; in the experiment on T2 cells [1] (Day 8 after peptide loading) it was 89 pg/mL. Besides, the “Release of IFNγ by CTL, MDA-MB-231 cells loaded with the peptide” value in experiment [2] (Day 1 after peptide loading) worked out at 2820 pg/mL; in experiment [2] (Day 3 after peptide loading) it was 141 pg/mL; in experiment [2] (Day 5 after peptide loading), 274 pg/mL; in experiment [2] (Day 8 after peptide loading), 99 pg/mL.
